From PubChem BioAssay AID624465 (National Center for Advancing Translational Sciences (NCATS), 2012)
The list shows a part of the results, in another mix than the full data. Calls of active or inactive are those of the source. No stated cut-off is given here; in the data, active means activation above about 40%; inconclusive means between about 15% and that limit; inactive means weaker than that.

The chains behind the UniProt entries cited, without tags or fusion partners.
UniProt P14416, whole entry: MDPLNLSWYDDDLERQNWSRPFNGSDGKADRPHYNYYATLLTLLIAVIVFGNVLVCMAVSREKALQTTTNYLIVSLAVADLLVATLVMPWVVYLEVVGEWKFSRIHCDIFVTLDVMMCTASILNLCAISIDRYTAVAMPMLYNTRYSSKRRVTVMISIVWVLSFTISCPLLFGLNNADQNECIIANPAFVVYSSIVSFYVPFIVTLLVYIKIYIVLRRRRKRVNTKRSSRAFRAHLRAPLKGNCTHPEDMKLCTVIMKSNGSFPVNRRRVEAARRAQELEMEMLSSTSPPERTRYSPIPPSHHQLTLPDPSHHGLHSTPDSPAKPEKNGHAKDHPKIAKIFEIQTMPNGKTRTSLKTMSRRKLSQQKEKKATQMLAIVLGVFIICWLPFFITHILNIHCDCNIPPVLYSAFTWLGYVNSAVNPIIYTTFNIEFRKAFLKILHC

target: D(2) dopamine receptor (Homo sapiens) (UniProt P14416); assay: Beta-Arrestin HTS for Positive Allosteric Modulators of the Human D2 Dopamine Receptor: Agonists; settings: DiscoveRx PathHunter D2 beta-arrestin, luminescence, 90 min; hits give high values; 100% = 57 uM dopamine signal
Outline: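 Agonist mode: compounds alone added to overnight-plated D2 PathHunter cells for 90 min at 37 C, with 57 uM final dopamine (EC100) defining full response. Beta-arrestin recruitment detected by chemiluminescent reagent, read after 1 h at ambient temperature.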

SMILES	activation
CN(C)c1cccc(C(=O)NCC2(N3CCCCC3)CCCCC2)c1	inactive: -2.17%
COc1ccc(CN(CCCl)CCCl)cc1Cl	inactive: -1.56%
CCC(c1nnnn1C(C)(C)C)N1CCC(n2c(=O)[nH]c3ccccc32)CC1 (stereo not given)	inactive: -2.88%
O=C(NCC1(N2CCOCC2)CCCCC1)c1cc(F)c(F)cc1Cl	inactive: -1.95%
COc1cc(OC)c(C(=O)NCC2(N(C)C)CCCCC2)cc1OC	inactive: -4.27%
CCCCn1nnnc1C(c1ccnc2ccccc12)N1CCC(n2c(=O)[nH]c3ccccc32)CC1 (stereo not given)	inactive: 4.67%
O=C(NCC1(N2CCCCC2)CCCCC1)c1cccc(C(F)(F)F)c1	inactive: -5.01%
COc1cc(C(=O)NCC2(N3CCCCC3)CCCCC2)ccc1OC(F)F	inactive: -2.48%
O=C(NCC1(N2CCOCC2)CCCCC1)c1cc(=O)[nH]c2ccccc12	inactive: -1.34%
CCCCn1nnnc1C(c1cccc2ccccc12)N1CCC(n2c(=O)[nH]c3ccccc32)CC1 (stereo not given)	inactive: 3.47%
CN1CCN(CCOC(=O)C(O)(c2ccccc2)c2ccccc2)CC1	inactive: 0.507%
COc1ccc(NC2CCN(C(=O)OC(C)(C)C)CC2)cc1	inactive: -2.69%
CC(C)c1ccc(C(=O)NCC2(N3CCOCC3)CCCCC2)cc1	inactive: -2.97%
O=C(NCC1(N2CCCCC2)CCCCC1)c1ccc(OC(F)F)cc1	inactive: -1.17%
CC(C)(C)n1nnnc1C(c1ccccc1OC(F)(F)F)N1CCC(n2c(=O)[nH]c3ccccc32)CC1 (stereo not given)	inactive: 5.58%
N#CC1(Nc2ccccc2)CCN(CCc2ccccc2)CC1	inactive: -1.73%
O=c1[nH]c2ccccc2n1C1CCN(C(c2ccccc2OC(F)(F)F)c2nnnn2C2CCCC2)CC1 (stereo not given)	inactive: -1.09%
CCN1CCC(Nc2ccc(Cl)cc2)CC1	inactive: -3.87%
CSc1ccc(C(=O)NCC2(N3CCOCC3)CCCCC2)cc1	inactive: -2.08%
O=C(NCC1(N2CCCCC2)CCCCC1)c1cccc([N+](=O)[O-])c1	inactive: 2.64%
